# Antibody variant affinities, Ab-14 heavy chain, assay 1

Target: peptide PDVDLGDISGINAS, taken from heptad repeat 2 (HR2) of SARS-CoV-2 spike.

Parent scFv Ab-14: VH joined to VL by three GGGGS repeats. Changes lie in the heavy chain CDRs alone.
VH: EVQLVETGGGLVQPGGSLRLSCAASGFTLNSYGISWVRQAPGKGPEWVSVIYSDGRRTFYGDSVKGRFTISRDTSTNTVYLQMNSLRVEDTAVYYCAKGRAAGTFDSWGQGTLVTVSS
VL: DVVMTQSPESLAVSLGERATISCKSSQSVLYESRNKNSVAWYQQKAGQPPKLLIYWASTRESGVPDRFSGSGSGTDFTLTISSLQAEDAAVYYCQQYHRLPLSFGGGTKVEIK

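The parent was found by panning a naive human phage display library on the peptide. Library AAYL49 holds single substitutions and randomly drawn double and triple substitutions in the CDRs. AlphaSeq pools MATa yeast showing the antibodies with MATalpha yeast showing the peptide. Pairs that bind mate more often; barcode pairs of the diploids are counted by sequencing. Read counts were normalised to the haploid input and turned into Kd by a linear fit to BCL2-family pairs of known affinity, for each replicate. There are three technical replicates.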

Variants are written as CDR1, CDR2 and CDR3 of the heavy chain (limits as in the source). Parent: GFTLNSYGIS, VIYSDGRRTFYGDSVK, GRAAGTFDS. Kd is apparent (estimated from mating counts) and averaged on the log scale over replicates with a signal. Smaller is tighter. "no signal" means that the variant was in the library but no mating with the target was seen in any replicate; the authors take this as a sign of poor binding, and no number exists. Parent in this assay: reference entry 4.4 nM, copy in this library 13 µM (one replicate of three). Nonspecific signal, from three strains lacking the peptide, appeared in 15% of pairings of library AAYL49, centred on 11 µM (5% of these signals below 680 nM); values are not corrected for it.

| CDR-H1 | CDR-H2 | CDR-H3 | apparent Kd | detected |
|---|---|---|---|---|
| GFTLNSYNIS | VIYSDGRSTFYGDSVK | LRAAGTFDS | 230 µM | 2/3 |
| GFTLQRYGIS | VIYSDGRRTFYGDSVK | GRAGGTFDS | 170 nM | 3/3 |
| GFTWNSYGNS | VIYSDGRRRFYGDSVK | GRAAGTFDS | no signal | 0/3 |
| GFMLNSYGAS | VIYSDGRRTFYNDSVK | GRAAGTFDS | no signal | 0/3 |
| GFTDNSYGIS | FIYSDGRRTFYGDSVK | GRAAGTWDS | 840 nM | 1/3 |
| GFTLNSSGIS | VIYSDGRRTFYGDSVK | GRAASTFKS | no signal | 0/3 |
| GFTLNSYGIS | VNERDGRRTFYGDSVK | GRAAGTFDS | 47 µM | 1/3 |
| GFTLNSYAIS | VIYSDLRRTFYIDSVK | GRAAGTFDS | 64 µM | 2/3 |
| GFTLNSYGIS | VIGMDGRRTFYGDSTK | GRAAGTFDS | 15 µM | 2/3 |
| GFTLNSLGIS | VPYSDWRRTFYGDSVK | GRAAGTFDS | 1.2 µM | 1/3 |
| GFTLNSYGIS | VIDSLGRRTFYGDSVK | GRAAGTFDS | no signal | 0/3 |
| GFTLNSYGIS | VIYSDGTRTFYGDSVK | GCAAGNFDS | no signal | 0/3 |
| GFTLNSYGIS | VIYSGGRLTFTGDSVK | GRAAGTFDS | 3.5 µM | 1/3 |
| GFTLNSYGIS | VIYSDGRRTFYGDAVK | GRAAGCFSS | no signal | 0/3 |
| GFTLNSYGIS | VHYSDGRRTFYGDSVK | GREAGTRDS | no signal | 0/3 |
| GFTLNSYGIS | VIYKDGRRTFYGWSVK | GRAAGTFDS | 15 µM | 1/3 |
| GMTLNSYGIS | MINSDGRRTFYGDSVK | GRAAGTFDS | 6.5 µM | 1/3 |
| GFTLNSYGIS | NIYSDGRRTFYGDSDK | GRAAGLFDS | no signal | 0/3 |
| EFTLNSCGIS | VIYSDGRRTFYYDSVK | GRAAGTFDS | 18 µM | 2/3 |
| GGTLNPYGIS | VIYSDKRRTFYGDSVK | GRAAGTFDS | no signal | 0/3 |
| GFTLNSYEIS | VIYSDDRRTFYGDSVP | GRAAGTFDS | no signal | 0/3 |
| GFTLNSYGIS | VIYSDGRFLFYGDSVK | GRAEGTFDS | no signal | 0/3 |
| GFTLNSYGIS | VGYSDGRRTFYGDSVK | GRNAGTMDS | no signal | 0/3 |
| GFTLNSYGAS | VIYSAGRRTFYGDSVK | GRAAFTFDS | no signal | 0/3 |
| GFTLNSYGIS | VIRSDLRRTFYGDSVK | GWAAGTFDS | no signal | 0/3 |
| GFTMTSMGIS | VIYSDGRRTFYGDSVK | GRAAGTFDS | 8.0 µM | 3/3 |
| GFTLNSYGIS | VIFSDGRRTFSGDSEK | GRAAGTFDS | no signal | 0/3 |
| GFTLNSYGIS | VIYSDIGRTFYGDSVK | GRAAGTFDS | no signal | 0/3 |
| GFTLNHYGIS | VPYSDGRGTFYGDSVK | GRAAGTFDS | 12 µM | 1/3 |
| GFTLNSYGIS | VIYLDGRRTQYGDSVK | GRAAGTFDK | 27 µM | 1/3 |
| GFTLNSYGIT | VIYSDGRRTFYGDSVI | GRAAGCFDS | no signal | 0/3 |
| GRQLNSYGIS | VIYSQGRRTFYGDSVK | GRAAGTFDS | no signal | 0/3 |
| GYTLNSYGIS | VIYSDGRRTFYGDGNK | GRAAGTFDS | 7.6 µM | 1/3 |
| GFTENSYGIS | VIYFDGERTFYGDSVK | GRAAGTFDS | 24 µM | 1/3 |
| GFTLNSYGIS | VCYSDGRITFYGDSVK | GRAQGTFDS | 190 µM | 2/3 |
| GFTLNSYGIS | VIYWNGRRTFYGDSRK | GRAAGTFDS | no signal | 0/3 |
| GFTLNSYQIS | VIYSDGRRTFYGDSVW | GRAAGTFDS | 12 µM | 1/3 |
| GFTLNSYGIS | VILSDGRRTFYGDAVK | GRAAWTFDS | 32 µM | 1/3 |
| GFTLNPYGIS | VIYSDLRRTFYGDSVK | GRAAGTFGS | no signal | 0/3 |
| GFTLNSYGIS | VIYCDGRRTFYGDSWN | GRAAGTFDS | no signal | 0/3 |
| GFTLNSYGIS | VIKSDGRRTFYGVSVK | GRAAGTCDS | no signal | 0/3 |
| GFALNSYGIS | CIYSDGRRTFYGESVK | GRAAGTFDS | 2.5 µM | 3/3 |
| GFTLNSYGIS | VIYSDGVRTFYVDSVK | GRAAGMFDS | 100 nM | 3/3 |
| GFTLNSYGIS | VIYSDGRRTTYGDSVK | GRPAGWFDS | 320 nM | 3/3 |
| GFTLNSYGSS | LIYSDGRRTFYGDSVK | GRAAGTEDS | no signal | 0/3 |
| GFTLNSYGIS | VIYSDGRRTFMGDSVK | GRAAGHFDS | 70 µM | 2/3 |

Excerpt, the final 3 entries:

CDR-H1,CDR-H2,CDR-H3,apparent Kd,detected
GFTLNSYGIS,VIYSDGRRTTYGDSVK,GRPAGWFDS,320 nM,3/3
GFTLNSYGSS,LIYSDGRRTFYGDSVK,GRAAGTEDS,no signal,0/3
GFTLNSYGIS,VIYSDGRRTFMGDSVK,GRAAGHFDS,70 µM,2/3

Reference: Engelhart et al. 2022, doi:10.1038/s41597-022-01779-4. File: FLAb, binding data.